The values below are quoted from earlier work in patent publication US20110097274A1, “Carbon-11 and fluorine-18 labeled radioligands for positron emission tomography (PET) imaging for the brain serotonin transporters” (priority 2002, published 2011).

Amino acid sequences for entries named in this document (tags omitted).
UniProt P31652, whole entry: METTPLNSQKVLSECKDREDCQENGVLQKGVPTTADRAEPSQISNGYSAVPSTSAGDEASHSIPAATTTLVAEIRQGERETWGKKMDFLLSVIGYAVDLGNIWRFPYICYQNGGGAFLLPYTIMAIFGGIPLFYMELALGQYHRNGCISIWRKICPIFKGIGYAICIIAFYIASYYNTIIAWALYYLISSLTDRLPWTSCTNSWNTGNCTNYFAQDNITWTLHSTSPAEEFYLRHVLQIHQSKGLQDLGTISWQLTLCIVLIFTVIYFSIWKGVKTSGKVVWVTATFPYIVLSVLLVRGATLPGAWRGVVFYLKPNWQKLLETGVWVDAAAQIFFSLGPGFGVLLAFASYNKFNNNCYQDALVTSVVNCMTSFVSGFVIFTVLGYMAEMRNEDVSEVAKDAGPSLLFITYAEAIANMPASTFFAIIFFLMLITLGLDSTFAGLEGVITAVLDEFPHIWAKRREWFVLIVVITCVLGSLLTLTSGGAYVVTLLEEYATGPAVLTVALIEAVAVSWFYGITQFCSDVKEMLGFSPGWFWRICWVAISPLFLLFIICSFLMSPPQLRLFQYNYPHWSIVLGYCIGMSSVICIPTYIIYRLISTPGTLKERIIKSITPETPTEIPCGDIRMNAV

Each structure is given as a SMILES string.

This data set addresses 5-HT uptake (Rattus norvegicus, UniProt P31652). The following applies: Shank et al., 1988; read-out: C50 for 5-HT uptake blockade; cited from earlier work.

Turning to `CSc1ccc(C2CN3CCCC3c3ccccc32)cc1` (single isomer, unassigned; (+)) [McN 5652, (+)-6β-(4-methylthiophenyl)-1,2,3,5,6α,10β-hexahydropyrrolo[2,1-a]isoquinoline], the IC50 was 0.4 nM.
